Laboratory results reported in US20210253671A1.

Target: IL-2 receptor (IL-2R)

EC50, CTLL-2 cell-based assay [nM]	Binder
1.5	IL2 (X = Ser)-linker1-AAT (Z = Cys) (ligand) [here about 150 residues without letters]GSTSGSEDPQGDAAQKTDTSHHDQDHPTFNKITPNLAEFAFSLYRQLAHQSNSTNIFFSPVSIATAFAMLSLGTKADTHDEILEGLNFNLTEIPEAQIHEGFQELLRTLNQPDSQLQLTTGNGLFLSEGLKLVDKFLEDVKKLYHSEAFTVNFGDTEEAKKQINDYVEKGTQGKIVDLVKELDRDTVFALVNYIFFKGKWERPFEVKDTEEEDFHVDQVTTVKVPMMKRLGMFNIQHCKKLSSWVLLMKYLGNATAIFFLPDEGKLQHLENELTHDIITKFLENEDRRSASLHLPKLSITGTYDLKSVLGQLGITKVFSNGADLSGVTEEAPLKLSKAVHKAVLTIDEKGTEAAGAMFLEAIPMSIPPEVKFNKPFVFLMIEQNTKSPLFMGKVVNPTQK
0.15	IL2-Linker2-AAT (X=Ser; Z=Ser) (ligand) [here about 150 residues without letters]GGGGSGGGGSEDPQGDAAQKTDTSHHDQDHPTFNKITPNLAEFAFSLYRQLAHQSNSTNIFFSPVSIATAFAMLSLGTKADTHDEILEGLNFNLTEIPEAQIHEGFQELLRTLNQPDSQLQLTTGNGLFLSEGLKLVDKFLEDVKKLYHSEAFTVNFGDTEEAKKQINDYVEKGTQGKIVDLVKELDRDTVFALVNYIFFKGKWERPFEVKDTEEEDFHVDQVTTVKVPMMKRLGMFNIQHSKKLSSWVLLMKYLGNATAIFFLPDEGKLQHLENELTHDIITKFLENEDRRSASLHLPKLSITGTYDLKSVLGQLGITKVFSNGADLSGVTEEAPLKLSKAVHKAVLTIDEKGTEAAGAMFLEAIPMSIPPEVKFNKPFVFLMIEQNTKSPLFMGKVVNPTQK
